Test system: trypsin

SMILES: CC[C@H](C)[C@H](N)C(=O)N[C@@H](CC(C)C)C(=O)N1CCC[C@H]1C(=O)N[C@@H](Cc1c[nH]c2ccccc12)C(=O)N[C@@H](CCCCN)C(=O)N[C@@H](Cc1c[nH]c2ccccc12)C(=O)N1CCC[C@H]1C(=O)N[C@@H](Cc1c[nH]c2ccccc12)C(=O)N[C@@H](Cc1c[nH]c2ccccc12)C(=O)N1CCC[C@H]1C(=O)N[C@@H](Cc1c[nH]c2ccccc12)C(=O)N[C@@H](CCCN=C(N)N)C(=O)N[C@@H](CCCN=C(N)N)C(N)=O [Indolicidin, reference compound]
- antibacterial activity after trypsin treatment, of the untreated control: 25-30%

Reference: patent US7902327B2, “Dendrimeric peptides, pharmaceutical compositions and methods of using the same” (New York University School of Medicine, priority 2007, dated 2011)
